Values of other authors, collected in paper PMC3357308 (Diabetes, 2012).

Test system: 11βHSD1
Settings: liver, in vivo, d4-cortisol tracer; cited from earlier work

C[C@]12CCC(=O)C=C1CC[C@@H]1[C@@H]2[C@@H](O)C[C@@]2(C)[C@H]1CC[C@]2(O)C(=O)CO [cortisol]
cortisol released by hepatic 11βHSD1: ~900 pmol/100 g tissue/min
